The values below are quoted from earlier work in PMC9005681, “Use of AD Informer Set compounds to explore validity of novel targets in Alzheimer's disease pathology” (Alzheimer's & Dementia : Translational Research & Clinical …, 2022).

This data set relates to SYK. The following applies: published affinity; ref PubMed 24779514, Probe Miner, Chemical probes portal; cited from earlier work.

Turning to `c1cn2cc(-c3ccc4cn[nH]c4c3)nc(Nc3ccc(N4CCOCC4)cc3)c2n1` [UNC10302678A, Entospletinib (GS-9973)], the “Reported on-target biochemical potency, SYK” value is 7.7 nM.
